Laboratory results reported in US20260382690A1, “Dual-Domain Peptide for Depleting HMGB1 from the Circulation via Liver HSPG System” (published 2026).

Test system: eNOS-dependent vasodilation, facialis arteries
Test: eNOS-dependent vasodilation (area between curves ± L-NAME) of facialis arteries from treated SS mice
Conditions: 3 weeks, ± L-NAME 100 μM
Experimental: Effects of hE-HMGB1-BP on vasodilation, eNOS-dependent vasodilation, and plasma HMGB1. Townes SS mice were treated daily with hE-HMGB1-BP (Biomatik Corp., Kitchener, Ontario; 2.72 mg/kg/d, subcutaneous injection) for three weeks. On the day of the vasodilation studies, mice were anesthetized with isoflurane (1-3%), subjected to thoracotomy, and euthanized by exsanguination. A hypodermic needle was inserted into the heart's right side, and blood was drawn into EDTA. Plasma was separated by centrifugation. The plasma was divided into aliquots and stored at −80 °C until analysis for HMGB1 using ELISA kits from Tecan (30164033, Männedorf, Switzerland) as described. Facialis arteries were isolated by microdissection, cannulated, and pressurized to 60 mmHg. Changes in vasodilation of (5Z)-7-[(1R,4S,5S,6R)-6-[(1E,3S)-3-hydroxy-1-octenyl]-2-oxabicyclo[2.2.1]hept-5-yl]-5-heptenoic acid (U46619)-preconstricted, pressurized facialis arteries were determined by video microscopy in response to acetylcholine (Ach) (10-7-10-4 M) as before. After determining vasodilation in the absence of N(G)-nitro-L-arginine methyl ester (L-NAME), the bath's MOPS physiological buffer [CaC12 2H2O (2.0 mM), EDTA (0.02 mM), glucose (5.0 mM), KCl (4.7 mM), MgSO4·7H2O (1.17 mM), MOPS (3.0 mM), NaCl (145 mM), NaH2PO4OH2O (1.2 mM), pyruvic acid (2.0 mM)] was replaced with 37 °C MOPS physiological buffer containing L-NAME (100 μM) and Ach-induced relaxation responses determined once again, as above. eNOS-dependent vasodilation was determined from the area between curves (ABC). The area between vasodilation curves in the absence and presence of L-NAME was calculated using the area under the curve function in Prism GraphPad 9.5.0 after correction of paired data for negative relaxation responses. […]
Effects of inhibiting GSNOR on vasodilation in SS mice. […] Relaxation responses to Ach (10-7 to 10 4 M) were determined in MOPS physiological buffer in the absence and presence of L-NAME by video microscopy as described. […]

SMILES | eNOS-dependent vasodilation (ABC) (2.72 mg/kg/d, subcutaneous, mean±SD, SS+PBS 24.7±15.4, AA 83.2±37.7) | eNOS-dependent vasodilation (in words) (SS mice, KYC 3 mg/kg/d or N6022 1 mg/kg/d in PBS with 1% DMSO)
CC[C@H](C)[C@H](NC(=O)CNC(=O)[C@H](CCCCN)NC(=O)[C@@H](NC(=O)[C@H](CC(=O)O)NC(=O)[C@H](Cc1ccccc1)NC(=O)[C@H](CC(N)=O)NC(=O)[C@H](CC(N)=O)NC(=O)[C@H](C)NC(=O)[C@H](CO)NC(=O)[C@H](Cc1c[nH]cn1)NC(=O)[C@H](C)NC(=O)CNC(=O)CNC(=O)[C@H](CCCNC(=N)N)NC(=O)[C@H](CC(C)C)NC(=O)[C@H](CC(C)C)NC(=O)[C@H](CCCNC(=N)N)NC(=O)[C@H](CCCCN)NC(=O)[C@H](CCCNC(=N)N)NC(=O)[C@H](CC(C)C)NC(=O)[C@H](CCCCN)NC(=O)[C@H](CCCNC(=N)N)NC(=O)[C@H](CC(C)C)NC(C)=O)C(C)C)C(N)=O | 90.5±19.3 arbitrary units | –
CC(=O)N[C@@H](CCCCN)C(=O)N[C@@H](Cc1ccc(O)cc1)C(=O)N[C@@H](CS)C(N)=O | – | improved eNOS-dependent vasodilation
